This is a sample that favours compounds with a hit; in the whole collection about 1% have one here.
Statin myotox sup = suppressors of simvastatin-induced myotoxicity in C2C12 myotubes. hit rate 0.78% among 330,000. rescue of ATP level, % at 7.49 µM. ATP luminescence, 48 h; scaled: DMSO 0, geranylgeraniol control 100;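 active = mean ATP rescue above about 67%, or every replicate alone reaching that limit, limit read from the data, passing the limit was not always enough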;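 also: myotubes were challenged with 10 µM simvastatin during compound exposure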
Yeast UUG start-1 = alters start codon recognition fidelity in yeast | S. cerevisiae UUG-firefly luciferase reporter, luminescence/redox ratio | activity score, % at 18.7 µM | 350,000 compounds, 0.13% hits | AID 602363;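 active = replicate mean at a twofold rise or more, about +100% in these data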;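 note: firefly luciferase made from a UUG start codon reports start codon fidelity; reporter light over untreated wells divided by growth signal over untreated wells; some hits fall short of that in this replicate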
CDK5 p35 inh = inhibitors of human CDK5/p35 kinase | Q00535+Q15078 | Recombinant CDK5/p35, ADP-Glo luminescence, 60 min | AID 488839 | inhibition, % at 10 µM | hit rate 0.01% among 330,000;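 active = highest replicate inhibition of at least 50% and at least 75% of replicates reaching 50%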
Rtt109 Vps75 = blocks Candida albicans Rtt109/Vps75 acetyltransferase activity | Q5AAJ8 | purified Rtt109/Vps75, ThioGlo CoA-SH fluorescence, 4 h | inhibition, % at 34.9 µM | hit rate 0.16% among 330,000 | AID 540336;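 active = inhibition of at least 50% in every replicate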
Cneo AK release = causes C. neoformans cell lysis. adenylate kinase release luminescence, 4 h; normalised: neutral wells 0, clomiphene wells 100. lysis activity, % at 15 µM. AID 651654. hit rate 0.2% among 360,000;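 active = mean lysis activity across replicates of at least 80%, whatever share of replicates individually reach that level; inactive = mean lysis activity below 80%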
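Assay system: log-phase C. neoformans yeast / Quantity: yeast cell density of 5 × 10^6 cells/mL / Medium: fresh YPD growth medium / Compound: single dose / Timing: static 4 h at 37 °C with compound, 1 h detection / Measured by: adenylate kinase release luminescence / Read-out: lysis from increased AK signal / Benchmarks: Clomiphene as positive lysis control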
Yeast UUG start-2 = modulators of start codon recognition fidelity in yeast | shares compounds with Yeast UUG start-1 | S. cerevisiae UUG-start firefly luciferase, luminescence, 4 h; 100% means double the DMSO signal | activation, % at 38 µM | 540 tested, under 10 active | AID 652061;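 active = signal increase whose fitted curve reaches an absolute level of 40 at a concentration under 10 µM; inactive = activity opposite to the expected increase, or the rest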
Large screens that a line does not name were inactive (follow-up assays come after a bar, where they were run); ! = repeats disagree.

COc1ccc(Oc2cc(NC(=O)c3nn(C)cc3[N+](=O)[O-])cc([N+](=O)[O-])c2)cc1	Statin myotox sup 97
COc1ccc(-n2c(/C=C/c3ccc(O)c(O)c3)nc3ccccc3c2=O)cc1	none
COc1cc(/C=C/c2nc3ccccc3c(=O)n2-c2ccc(O)cc2)ccc1O	Statin myotox sup 117
CCN1[C@@H]2c3ccc(-c4cccc(C(=O)N(C)C)c4)c(=O)n3C[C@H]1[C@H](CO)[C@H]2C(=O)OC	none (no result: Yeast UUG start-1, CDK5 p35 inh, Rtt109 Vps75)
Cc1cccc(S(=O)(=O)N2[C@@H]3c4ccc(-c5ccc(F)cc5)c(=O)n4C[C@H]2[C@H](CO)[C@H]3C(=O)O)c1	none (no result: Yeast UUG start-1, CDK5 p35 inh, Rtt109 Vps75, Cneo AK release)
O=C(Cc1ccccc1)N1C[C@@H]2[C@H](c3ccccc31)[C@@H](CO)N2Cc1ccccc1	none (no result: CDK5 p35 inh, Rtt109 Vps75)
COc1ccc(-c2ccc([C@@H]3[C@H](CO)N4CCCCN(C(=O)Cc5ccccc5)C[C@@H]34)cc2)cc1	none (no result: Statin myotox sup, CDK5 p35 inh, Rtt109 Vps75)
Cc1cccc(NP(C)(=O)c2nc3c(s2)CCCC3)c1 (configuration not stated)	Statin myotox sup 143 (no result: Rtt109 Vps75)
O=C(O)[C@H]1[C@H](CO)[C@H]2Cn3c(ccc(C4=CCCC4)c3=O)[C@@H]1N2C(=O)Cc1ccccn1	none (no result: CDK5 p35 inh, Rtt109 Vps75)
C#CCNc1ccncc1S(=O)(=O)NC(=O)NC(C)C	Statin myotox sup 128
O=P(Nc1ccccc1)(Nc1ccccc1)Oc1ccccc1	none (no result: Statin myotox sup, Yeast UUG start-1, Cneo AK release)
O=P(Nc1ccccc1)(Nc1ccccc1)Oc1cccc(Cl)c1	Statin myotox sup 97
C[C@H]1CC[C@H]2NCCN[C@H]2C1	Rtt109 Vps75 56 (no result: Statin myotox sup, Yeast UUG start-1, Cneo AK release)
C[C@]12CC[C@@H]3c4ccc(O)c(O)c4CC[C@H]3[C@@H]1CC[C@@H]2O	Rtt109 Vps75 132
CN1C(=O)C(C2c3ccccc3C(=O)N2Cc2ccccc2)C(=O)N(C)C1=O (configuration not stated)	Statin myotox sup 108
CC(=O)c1ccc2c(c1)C1C(Cl)C(Sc3ccccc3[N+](=O)[O-])CC1C(c1ccccc1[N+](=O)[O-])N2 (configuration not stated)	Statin myotox sup 81
COC(=O)[C@H]1[C@H](CO)[C@H]2Cn3c(ccc(-c4cccc(OC)c4)c3=O)[C@@H]1N2C(=O)c1cnccn1	none (no result: Yeast UUG start-1, CDK5 p35 inh, Rtt109 Vps75)
N#Cc1cccc(-c2ccc([C@H]3[C@H]4CN(C(=O)Cc5cccnc5)CCCCN4[C@H]3CO)cc2)c1	none (no result: CDK5 p35 inh, Rtt109 Vps75)
COC(=O)C1=C(C)NC(C)=C(C(=O)OC)C1c1ccccc1[N+](=O)[O-]	Rtt109 Vps75 134!
O=C1NC(=O)C(Sc2ccccc2[N+](=O)[O-])C(=O)N1	Rtt109 Vps75 86
CC[C@H](C)[C@@H]1NC(=O)CNC(=O)c2csc(n2)[C@H](C(C)(C)O)OC(=O)C(C)(C)[C@H](CCCC(C)(Cl)Cl)OC(=O)c2csc1n2	Cneo AK release 279 (no result: CDK5 p35 inh, Rtt109 Vps75)
N#Cc1cccc(-c2ccc([C@@H]3[C@@H](CO)N4CCCCN(C(=O)Cc5ccccc5)C[C@H]34)cc2)c1	none (no result: Statin myotox sup, CDK5 p35 inh, Rtt109 Vps75)
CN1/C(=C\C=Nc2ccccc2)C(C)(C)c2ccccc21	Statin myotox sup 85
O=C(Cc1ccccc1)N1CCCCN2[C@@H](CO)[C@@H](c3ccc(-c4ccccc4)cc3)[C@@H]2C1	none (no result: Statin myotox sup, CDK5 p35 inh, Rtt109 Vps75)
O=C1/C(=C\c2ccccc2)C2OCC=C3CN4CCC56c7ccccc7N1C5C2C3CC46 (configuration not stated)	Statin myotox sup 137
O=C(N/N=C/c1c(O)n(-c2ccccc2)c(=S)[nH]c1=O)c1ccccc1	Yeast UUG start-1 182 (no result: Statin myotox sup) | Yeast UUG start-2 inactive
Cc1cccc(S(=O)(=O)N2[C@@H]3Cn4c(ccc(-c5ccncc5)c4=O)[C@H]2[C@@H](C(=O)O)[C@@H]3CO)c1	none (no result: Yeast UUG start-1, CDK5 p35 inh, Rtt109 Vps75)
COc1ccccc1CN1CCCC(C(=O)c2ccccc2OC)C1 (configuration not stated)	Yeast UUG start-1 active | Yeast UUG start-2 inactive
COc1ccc(C#Cc2ccc([C@H]3[C@H](CO)N4CCCCN(C(=O)Cc5ccncc5)C[C@@H]34)cc2)cc1	none (no result: Statin myotox sup, CDK5 p35 inh, Rtt109 Vps75)
Cc1cccc(OCC(O)CN2CC2)c1 (configuration not stated)	Yeast UUG start-1 143 (no result: CDK5 p35 inh, Rtt109 Vps75) | Yeast UUG start-2 inactive
CC(=O)c1cccc(OCC(O)CN2CC=C(c3ccccc3)CC2)c1 (configuration not stated)	none
